SMILES strings stand for the structures. The entries are a selection whose mix differs from that of the whole data set. Some of these compounds have results that are not shown, active ones among them. Activity calls are given as the source filed them.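 The calls were made as follows: active = inhibition above a per-plate limit, mean inhibition of low control wells plus 3 SD (cut at about 25% in these data); inactive = the rest.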

Sequences of proteins named here, by UniProt entry; tags and fusion partners are left off. Residues count along the entry.
UniProt Q62848, 1-136 limits assumed: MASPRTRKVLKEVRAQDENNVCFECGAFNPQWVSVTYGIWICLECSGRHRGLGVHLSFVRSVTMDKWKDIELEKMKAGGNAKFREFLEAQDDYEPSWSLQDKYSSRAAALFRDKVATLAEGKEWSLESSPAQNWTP

The assay has as its target ADP-ribosylation factor GTPase-activating protein 1 (Rattus norvegicus) (UniProt Q62848). In words: inhibitors of rat ARFGAP1 GAP activity, primary screen, biochemical, fluorescence polarization, GDP tracer (AID 651572).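 Also: 0% = DMSO wells with enzyme and 100% = wells lacking Arfgap1.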 Conditions: Arfgap1-stimulated ARF1 GTP hydrolysis, GDP FP detection; at 16.5 µM; stronger effect = higher value. In short, it runs like this:
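Assay system: Rat Arfgap1 GAP domain (His6, aa 1-136), purified enzyme | Buffer or medium: HEPES 25 mM pH 7.5, NaCl 150 mM, MgCl2, DTT | Schedule: GTP hydrolysis reaction 2 h at 25 °C | Signal: FP of antibody-bound GDP Alexa 633 tracer, ex 620/em 688 nm | Measure: Percent inhibition of Arfgap1-stimulated GTP hydrolysis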
In general terms: Polarisation of emitted light reports the rotation of a fluorescent probe.
The inhibition is the relative decrease from the control value, in per cent. As to `O=C(NCC1(N2CCCCC2)CCCCC1)c1cccc(Cl)c1`, the inhibition was inactive: 11.1%. The value for `COc1cccc(C(=O)NCC2(N3CCCCC3)CCCCC2)c1` was inactive: -6.23%.

As to `COc1ccc(Cl)cc1C(=O)NCC1(N(C)C)CCCCC1`, the inhibition was inactive: 3.92%. For `COc1cc(C(=O)NCC2(N(C)C)CCCCC2)c([N+](=O)[O-])cc1OC` the value was inactive: 3.57%; for `CN(C)C1(CNC(=O)c2ccc(Br)cc2)CCCCC1`, inactive: 3.53%. The value for `CN(C)c1cccc(C(=O)NCC2(N(C)C)CCCCC2)c1` was inactive: -6.44%; that for `CC(C)Oc1ccc(C(=O)NCC2(N(C)C)CCCCC2)cc1` was inactive: 5.72%.

As to `O=C(OCCN1CCCC1)C(O)(c1ccccc1)c1ccccc1`, the inhibition was inactive: -1.46%. For `COc1ccc(Br)c(C(=O)NCC2(N3CCCCC3)CCCCC2)c1` the value was inactive: 8.98%; for `C=C(C)C#CC(O)(C(=O)OC1CCN(C)CC1)c1ccccc1` (stereo unspecified), inactive: -0.71%. The value for `O=C(OC1CN2CCC1CC2)C(CO)(c1ccccc1)c1ccccc1` (stereo unspecified) was inactive: 1.37%; that for `Cc1ccc(C(=O)NCC2(N3CCCCC3)CCCCC2)cc1` was inactive: 3.49%; that for `CC(C)N1C(=O)CC2(CCN(CCOC(=O)C(O)(c3ccccc3)c3ccccc3)CC2)C1=O` was inactive: -0.86%. For `CCN(CC)CC(C)C(C)OC(=O)C(O)(c1ccccc1)c1ccccc1` (stereo unspecified) the value was inactive: -3.88%; for `COc1cc(SC)ccc1C(=O)NCC1(N(C)C)CCCCC1`, inactive: 0.71%; for `CN1[C@@H]2CC[C@H]1CC(OC(=O)C(O)(c1ccccc1)c1ccccc1)C2` (stereo partly specified), inactive: -1.89%. Regarding `O=C(NCC1(N2CCCCC2)CCCCC1)c1cc([N+](=O)[O-])ccc1Cl`, the inhibition was inactive: -7.5%.

Turning to `Cc1cc(C(=O)NCC2(N3CCCCC3)CCCCC2)ccc1[N+](=O)[O-]`, the inhibition is inactive: 9.17%. For `CCN1CCCC(OC(=O)C2(O)c3ccccc3C=Cc3ccccc32)C1` (stereo unspecified) the value was inactive: 15.2%; for `O=C(NCC1(N2CCCCC2)CCCCC1)c1cccc(Br)c1`, inactive: 11%; for `COc1ccc(C(=O)NCC2(N(C)C)CCCCC2)cc1`, inactive: 13.1%. For `C=CCN1CCN(CCOC(=O)C(O)(c2ccccc2)c2ccccc2)CC1` the value was inactive: 11.1%. For `O=C(NCC1(N2CCCCC2)CCCCC1)c1cc(F)c(F)cc1Cl` the value was inactive: -0.89%; for `Cc1ccccc1C(=O)NCC1(N2CCCCC2)CCCCC1`, inactive: 11.7%; for `CN(C)C1CCCC1OC(=O)C(O)(c1ccccc1)c1ccccc1` (stereo unspecified), inactive: 7.78%. On to `CN(C)c1ccc(C(=O)NCC2(N(C)C)CCCCC2)cc1`, for which the inhibition is inactive: 0.05%.

For the origin of these results see PubChem BioAssay AID651572 (The Scripps Research Institute Molecular Screening Center, 2012).
